This is a sample that favours compounds with a hit; in the whole collection about 1.7% have one here.
miR-21 reporter: miR-21 reporter, rising signal; HeLa miR-21 FLuc reporter, luciferase, 48 h; Potency, µM (doses to about 38.3 µM), for inactives: at the highest dose reporter change, positive = more light; 340,000 tested, under 10 active; AID 2288; active = well fitted rising curve with a large enough effect; inconclusive = small, poorly fitted or top-dose-only effect; inactive = no such curve, though single readings can be large or run the other way;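 further: % of control where 0% means no effect; miR-21 action dims this reporter so a rising signal means less miR-21 action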
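HeLa miR-21-FLuc reporter line, endogenous miR-21; 2000 cells/well in DMEM/10% FBS; compound titration up to ~40uM final, 48 h, 37 degree Celsius; luciferase detection reagent, 15 min lysis, CCD luminescence.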
Pin1 inh: human Pin1 inhibition | AID 504891 | Q13526 | actives 0.009% (n = 390,000) | Pin1 FP peptide displacement, HiFluor488, 10 min | Potency, µM (series often up to 115 µM), for the others: at the highest dose activity, negative = inhibition, actives largely listed as inhibitors; active = well fitted inhibition curve with a large enough effect in the polarisation, with a control signal flat, not every such curve was filed as active; inconclusive = small, poorly fitted or top-dose-only effect, or effect the other way, or a change in a side signal; inactive = no such curve, though single readings can be large or run the other way; the % refers to the polarisation; also: potency is read from the fitted curve at half-maximal effect; % is scaled to controls: 0 for no effect and ±100 for the full control effect
PTHR1 ag: agonists of human PTHR1 parathyroid hormone receptor; HEK293 GP2 PTHR1 cells, GloSensor cAMP luminescence, 1 h; Potency, µM (top dose mostly 115 µM), without a hit: at the top dose activation, usual class: activators; actives 0.075% (n = 410,000); also: potency is read from the fitted curve at half-maximal effect; nearly all actives have a fitted effect of over 55% in size
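HEK-293-derived GP2 cells expressing PTHR1 and a GloSensor cAMP reporter, 3,000/well, plated overnight, given luciferin plus IBMX (each 0.5 mM as added) for 1 h at 37 °C, then compound for 1 h at 37 °C. Luminescence was read after 15 min at room temperature.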
GLP1R ag: agonists of human GLP-1 receptor. P43220. HEK293 GLP-1R CRE-luciferase, luminescence, 4-6 h; cells express a hypersensitive GLP-1R form. Potency, µM (highest dose often 45.6 µM), for inactives: top-dose activation, most hits filed as activators. actives 0.007% (n = 380,000). AID 624172; also: potency is read from the fitted curve at half-maximal effect; % of control where 0% means no effect
GLP-1R inv ag: acts as inverse agonist at human GLP-1 receptor; P43220; HEK293 GLP-1R CRE-luciferase, luminescence, 24 h; GLP-1R form is constitutively active; Potency, µM (titrated, usually from 38.3 µM), for the others: at the top dose activity change, negative = inhibition, hits mostly inhibitors; actives 1.6% (n = 410,000); AID 624417; also: potency is read from the fitted curve at half-maximal effect; % is scaled to controls: 0 for no effect and ±100 for the full control effect; nearly all actives have a fitted effect of over 55% in size
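Inverse agonism was detected as reduced cAMP-driven luciferase luminescence after 24 h compound treatment. The cells were HEK293 clones expressing constitutively active human GLP-1R with the reporter. Reporter-only and GPR119 cell lines served as counterscreen controls.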
HEK293 tox: cytotoxicity counter-screen for GLP-1 receptor inverse agonists; HEK293 cAMP-luciferase reporter cells, luminescence, 24 h; Potency, µM (top dose mostly 38.3 µM), inactives show top-dose activity change, negative = inhibition, usual class: inhibitors; actives 0.13% (n = 410,000); AID 624418;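 also: loss of luciferase light is scored as toxicity; potency is read from the fitted curve at half-maximal effect; % is scaled to controls: 0 for no effect and ±100 for the full control effect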
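MLSMR compounds, 24 hr on cells at 37 deg C/5% CO2; luminescence after luciferase reagent (12 min RT). Inhibition counted as the undesired cytotoxic outcome.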
Numbers without * were called inactive; i = inactive; ? = inconclusive; / = no result; [ ] = another dose, or the depositor's remark. Unless noted, calls follow the shape of the dose curve; as a rule, active = well fitted curve in the direction sought with a large enough effect; inconclusive = small, poorly fitted or top-dose-only effect, or another doubt; inactive = no such curve, though single readings can be large; an effect the other way counts as inactive or inconclusive.

1. C=CCN1C(=O)NC(c2ccc(OC)cc2)(C(F)(F)F)S/C1=C(\C#N)c1nnc(N2CCOCC2)n1-c1ccccc1 (stereo not given)
2. CCOC(=O)C1(CCc2ccccc2)CCN(Cc2nccn2CC)CC1
3. CCc1ccc2oc(-c3ccc(C)c(NC(=O)c4ccc(C#N)cc4F)c3)nc2c1
4. CCn1nnnc1SCC(=O)N(C1CCCCC1)C1CCCCC1
5. O=[N+]([O-])c1ccc(C=NNc2ccccc2)cc1

entry no. | 1 | 2 | 3 | 4 | 5
miR-21 reporter | -4% | -2% | -57% | 1% | /
Pin1 inh | 7% | -4% | -2% | -3% | 70%
PTHR1 ag | -31% | -1% | i | i | -40%
GLP1R ag | 2% | 7% | 0% | 6% | -13%
GLP-1R inv ag | ? | ? | 0% | 8.9µM* | 5µM*
HEK293 tox | 10µM* | 8.9µM* | 3% | -18% | -8%

6. O=C(CN1c2ccccc2Sc2ccccc21)N/N=C/c1ccc([N+](=O)[O-])cc1
7. CCOc1ccc(NC(=O)C(=O)NCC(c2cccnc2)N2CCc3ccccc32)cc1 (stereo not given)
8. CCOc1ccc(NC(=O)Cn2c(=O)n(Cc3ccccc3)c(=O)c3sc4ccccc4c32)cc1
9. O=C1CN(S(=O)(=O)c2c(F)cccc2F)CCN1S(=O)(=O)c1ccc2c(c1)OCCO2
10. c1ccc(CSc2nc3ncccc3[nH]2)cc1

entry no. | 6 | 7 | 8 | 9 | 10
miR-21 reporter | 10% | -10% | -3% | / | -47%
Pin1 inh | -2% | 0% | 2% | -3% | -1%
PTHR1 ag | -5% | -92% | i | / | i
GLP1R ag | 5% | / | / | / | /
GLP-1R inv ag | 13µM* | ? | 16% | / | 19%
HEK293 tox | -7% | -16% | 8% | / | 3%

11. COc1cc(C(=O)O[C@H]2C/C(C)=C/CC[C@@]3(C)O[C@@H]3[C@H](O)[C@@H]2C(C)C)cc(OC)c1OC
12. Cc1c(NC(=O)C(C)(C)Oc2ccc(Cl)cc2)cccc1-c1nc2ccccc2o1
13. Cc1ccc(-c2nnc3ccccc3c2C(=O)Nc2cccc(C(F)(F)F)c2)cc1
14. [NH-]CCC([O-])=NC(Cc1cnc[nH]1)C(=O)[O-].[Zn+2] (stereo not given)
15. O=C(NNc1cccc(Cl)c1)c1cccnc1Cl

entry no. | 11 | 12 | 13 | 14 | 15
miR-21 reporter | 11% | ? | -41% | / | -10%
Pin1 inh | ? | 14% | -4% | / | -2%
PTHR1 ag | -39% | -44% | ? | / | -24%
GLP1R ag | 8% | / | / | -1% | -2%
GLP-1R inv ag | 13µM* | 11µM* | 14% | / | 1.3µM*
HEK293 tox | 6% | 22% | 18% | / | -34%

16. Cc1[nH][nH]c(=O)c1C(c1c(C)[nH][nH]c1=O)c1cn(Cc2ccc(F)cc2)c2ccccc12
17. Cc1[nH][nH]c(=O)c1C(c1c(C)[nH][nH]c1=O)c1cn(Cc2ccc(Cl)c(Cl)c2)c2ccccc12
18. COc1ccc2c3c(c(=O)oc2c1)C1O[C@](c2ccsc2)(Cc2cc(C#N)ccc21)O3
19. CCOc1c(Br)cc(CNC2CCCCCCC2)cc1OC
20. COc1cc(CNC2CCCCCCC2)cc(Br)c1OCC#N

entry no. | 16 | 17 | 18 | 19 | 20
miR-21 reporter | ? | 23% | -6%[7.66 µM] | 2% | -7%
Pin1 inh | 9% | 4% | / | 2% | 2%
PTHR1 ag | i | -10% | / | 21% | -22%
GLP1R ag | 11% | 15% | / | -1% | -4%
GLP-1R inv ag | 2µM* | ? | / | 3.2µM* | ?
HEK293 tox | ? | 3%[1.53 µM] | / | 2% | ?

21. N=c1c2c(ccn1Cc1ccccc1)Oc1ccc3ccccc3c1C2c1ccccc1 (stereo not given)
22. Cn1c(=O)n(-c2ccc(F)c(Cl)c2)c(=O)c2sc3ccccc3c21
23. CC(c1ccccc1)N(CCC(c1ccccc1)C1CCOC(C)(C)C1)C(=O)c1ccco1 (stereo not given)
24. Cc1ccc(C(CNS(=O)(=O)c2ccc(C)cc2)N2CCN(C)CC2)cc1 (stereo not given)
25. Cc1ccc(N(C)C(CNS(=O)(=O)c2ccccc2)c2ccccc2)cc1 (stereo not given)

entry no. | 21 | 22 | 23 | 24 | 25
miR-21 reporter | / | 0% | 24% | / | 19%
Pin1 inh | 53% | 4% | 5% | -25% | 3%
PTHR1 ag | / | -37% | -8% | i | -22%
GLP1R ag | / | 0% | -39% | 6% | /
GLP-1R inv ag | / | 16% | 10µM* | ? | 10µM*
HEK293 tox | / | 0% | -11% | 3% | 2%

Copied from the list.
Cc1ccc(C(CNS(=O)(=O)c2ccc(C)cc2)N2CCN(C)CC2)cc1 (stereo not given) @ Pin1 inh: -25%
Cn1c(=O)n(-c2ccc(F)c(Cl)c2)c(=O)c2sc3ccccc3c21 @ GLP-1R inv ag: 16%
Cc1ccc(N(C)C(CNS(=O)(=O)c2ccccc2)c2ccccc2)cc1 (stereo not given) @ PTHR1 ag: -22%
CC(c1ccccc1)N(CCC(c1ccccc1)C1CCOC(C)(C)C1)C(=O)c1ccco1 (stereo not given) @ Pin1 inh: 5%

The listing continues:
26. Cc1ccc(S(=O)(=O)NCC(c2ccccc2)N2CCCCC2)cc1 (stereo not given)
27. CN1CCN(C(CNS(=O)(=O)c2ccc([N+](=O)[O-])cc2)c2ccc(F)cc2)CC1 (stereo not given)
28. CCOc1ccc(S(=O)(=O)N(CC(=O)N2CCc3ccccc32)Cc2ccco2)cc1
29. Cc1nn(C)c2ncc(C(=O)c3ccccc3O)cc12
30. Cc1[nH]nc2ncc(C(=O)c3ccccc3O)cc12

entry no. | 26 | 27 | 28 | 29 | 30
miR-21 reporter | 1% | / | 1% | -6% | 22%
Pin1 inh | -2% | -9% | 23% | 1% | 13%
PTHR1 ag | i | i | i | -12% | ?
GLP1R ag | 6% | -12% | -11% | 21% | -11%
GLP-1R inv ag | 10µM* | 11µM* | 8.9µM* | 8% | 10µM*
HEK293 tox | 7% | -1% | -4% | 0% | -5%

Screen by screen, as entered above:
GLP1R ag, nos. 18–23 → /, -1%, -4%, /, 0%, -39%
HEK293 tox, nos. 18–23 → /, 2%, ?, /, 0%, -11%
PTHR1 ag, nos. 18–23 → /, 21%, -22%, /, -37%, -8%

Next results.
31. CC(C)(C)[C@@H]1CCC(=O)N(CC[C@H](Sc2ccccc2)c2ccccc2)CC1
32. CC(=O)Nc1ccc(S[C@@H](CCN2CC[C@H](C(C)(C)C)CCC2=O)c2ccccc2)cc1
33. C[C@@H](CSc1ccc(Br)cc1)CN1CC[C@H](C(C)(C)C)CCC1=O
34. Cc1ccc(SC[C@H](C)CN2CC[C@H](C(C)(C)C)CCC2=O)cc1
35. Cc1ccc(NS(=O)(=O)c2ccc(NC(=O)CN(c3cc([N+](=O)[O-])ccc3C)S(C)(=O)=O)cc2)c(C)c1

entry no. | 31 | 32 | 33 | 34 | 35
miR-21 reporter | 9% | / | / | 3% | ?
Pin1 inh | ? | 7% | -1% | -15% | 5%
PTHR1 ag | -50% | -13% | -58% | -2% | i
GLP1R ag | 2% | 1% | -4% | 10% | -8%
GLP-1R inv ag | 4.5µM* | ? | ? | 10µM* | 2.2µM*
HEK293 tox | ? | -4% | 0% | 1% | ?

36. COc1ccc(Br)cc1C1NC(c2ccc3c(c2)OCO3)=CC(c2cc(Cl)ccc2O)N1 (stereo not given)
37. COc1ccccc1N1CCN(S(=O)(=O)c2cc(-c3cc(C)no3)ccc2C(C)C)CC1
38. COc1ccc(-c2cc(C)no2)cc1S(=O)(=O)N1CCN(c2cccc(C)c2)C(C)C1 (stereo not given)
39. CCc1ccc(-c2cc(C)no2)cc1S(=O)(=O)N1CCN(c2cccc(C)c2C)CC1
40. Cc1cccc(N2CCN(S(=O)(=O)c3cc(-c4cc(C)no4)ccc3C)CC2C)c1 (stereo not given)

entry no. | 36 | 37 | 38 | 39 | 40
miR-21 reporter | / | -5% | 26% | 1% | 25%
Pin1 inh | 26% | 10% | 15% | 6% | 7%
PTHR1 ag | / | -13% | -21% | i | -7%
GLP1R ag | / | 5% | -4% | 2% | -3%
GLP-1R inv ag | / | 1µM* | ? | 7.9µM* | 4µM*
HEK293 tox | / | -9% | 4% | -10% | -12%

Bioassay records: PubChem, National Center for Advancing Translational Sciences (NCATS)
